Experimental findings from US8080570B2, “α2B and α2C agonists” (Allergan, Inc., priority 2008, dated 2011) are described below.

By UniProt entry, the sequences of proteins in these tests, tags left out. Where a name states a change or a piece, a line headed by the entry shows the natural chain unless it says otherwise.
UniProt P18825, whole entry, looked up: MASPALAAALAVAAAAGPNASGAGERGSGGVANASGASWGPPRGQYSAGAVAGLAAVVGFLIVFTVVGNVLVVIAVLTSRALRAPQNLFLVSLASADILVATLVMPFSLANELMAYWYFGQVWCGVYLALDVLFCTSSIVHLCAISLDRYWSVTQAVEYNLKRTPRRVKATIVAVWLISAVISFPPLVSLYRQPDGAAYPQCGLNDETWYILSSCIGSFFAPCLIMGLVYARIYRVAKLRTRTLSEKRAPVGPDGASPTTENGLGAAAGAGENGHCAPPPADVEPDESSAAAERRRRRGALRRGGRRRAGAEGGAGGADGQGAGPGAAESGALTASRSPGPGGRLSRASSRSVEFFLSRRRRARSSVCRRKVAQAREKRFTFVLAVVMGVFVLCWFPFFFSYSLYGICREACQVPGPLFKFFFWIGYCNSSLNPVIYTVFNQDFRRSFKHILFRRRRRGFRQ
UniProt P18089, whole entry, looked up: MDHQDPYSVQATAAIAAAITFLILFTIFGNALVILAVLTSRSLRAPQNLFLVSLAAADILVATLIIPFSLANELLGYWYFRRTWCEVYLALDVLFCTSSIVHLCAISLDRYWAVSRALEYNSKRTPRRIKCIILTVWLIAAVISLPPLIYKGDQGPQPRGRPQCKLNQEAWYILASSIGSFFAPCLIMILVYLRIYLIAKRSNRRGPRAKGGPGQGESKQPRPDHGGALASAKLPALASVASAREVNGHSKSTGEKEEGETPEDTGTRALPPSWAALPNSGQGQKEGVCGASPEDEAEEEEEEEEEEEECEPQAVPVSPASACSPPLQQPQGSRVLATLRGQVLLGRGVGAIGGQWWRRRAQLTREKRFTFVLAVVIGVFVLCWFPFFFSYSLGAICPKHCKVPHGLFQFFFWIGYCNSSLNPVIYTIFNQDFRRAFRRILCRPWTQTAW
UniProt P35368, whole entry, looked up: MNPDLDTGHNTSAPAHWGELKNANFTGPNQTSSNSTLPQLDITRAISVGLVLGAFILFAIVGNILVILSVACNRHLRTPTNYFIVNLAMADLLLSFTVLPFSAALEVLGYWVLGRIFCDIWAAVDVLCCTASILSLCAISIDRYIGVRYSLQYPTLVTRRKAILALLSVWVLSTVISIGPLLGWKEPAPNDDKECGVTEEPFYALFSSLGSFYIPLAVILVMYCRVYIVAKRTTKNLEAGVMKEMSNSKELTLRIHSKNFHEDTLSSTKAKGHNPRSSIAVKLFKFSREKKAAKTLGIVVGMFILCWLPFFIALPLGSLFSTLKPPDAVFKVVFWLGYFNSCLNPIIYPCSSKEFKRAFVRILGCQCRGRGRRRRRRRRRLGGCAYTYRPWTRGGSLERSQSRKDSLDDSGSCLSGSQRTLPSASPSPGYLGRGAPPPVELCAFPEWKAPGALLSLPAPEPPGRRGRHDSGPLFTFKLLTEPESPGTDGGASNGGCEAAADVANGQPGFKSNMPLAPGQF
UniProt P08913, whole entry, looked up: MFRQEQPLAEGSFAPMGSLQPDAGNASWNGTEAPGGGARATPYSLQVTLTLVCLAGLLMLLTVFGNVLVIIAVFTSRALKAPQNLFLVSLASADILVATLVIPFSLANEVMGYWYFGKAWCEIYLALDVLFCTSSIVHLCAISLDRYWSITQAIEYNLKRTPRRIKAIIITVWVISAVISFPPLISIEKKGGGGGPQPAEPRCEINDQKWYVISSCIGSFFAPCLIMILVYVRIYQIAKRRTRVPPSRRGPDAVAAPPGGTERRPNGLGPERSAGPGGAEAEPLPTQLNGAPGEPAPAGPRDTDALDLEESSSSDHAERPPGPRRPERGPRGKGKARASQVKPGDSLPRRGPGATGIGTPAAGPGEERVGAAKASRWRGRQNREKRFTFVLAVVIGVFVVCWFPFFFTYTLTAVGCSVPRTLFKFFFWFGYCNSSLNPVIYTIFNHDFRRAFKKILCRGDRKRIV
UniProt P35348: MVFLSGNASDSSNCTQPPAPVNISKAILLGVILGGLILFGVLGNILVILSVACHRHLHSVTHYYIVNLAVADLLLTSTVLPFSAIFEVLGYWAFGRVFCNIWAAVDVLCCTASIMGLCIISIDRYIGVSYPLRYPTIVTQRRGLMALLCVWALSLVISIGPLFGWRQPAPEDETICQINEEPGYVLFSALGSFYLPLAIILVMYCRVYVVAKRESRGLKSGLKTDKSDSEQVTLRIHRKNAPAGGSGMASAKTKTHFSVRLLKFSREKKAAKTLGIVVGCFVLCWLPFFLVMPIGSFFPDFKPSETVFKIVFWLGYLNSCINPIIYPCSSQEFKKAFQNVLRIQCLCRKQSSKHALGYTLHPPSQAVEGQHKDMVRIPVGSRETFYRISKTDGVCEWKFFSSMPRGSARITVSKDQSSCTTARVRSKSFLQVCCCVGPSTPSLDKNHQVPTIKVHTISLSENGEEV

Usually EC50 stands for the concentration at which the effect is half-maximal.

Assay type in all cases: cell-based
The target in one assay is α2C (Homo sapiens, UniProt P18825). The experiment in a line: FLIPR intracellular calcium assay, α2C. Conditions: fluo-3 calcium, NA = not active.
The next assay addresses α2B (Homo sapiens, UniProt P18089). The experiment in a line: FLIPR intracellular calcium assay, α2B. The following applies: read-out: α2B potency (EC50), fluo-3 calcium, NA = not active.
The next assay has as its target α1B (UniProt P35368). As to the kind of experiment: FLIPR intracellular calcium assay, α1B. Conditions: read-out: α1B potency (EC50), fluo-3 calcium, NA = not active. (In general: Calcium flux is commonly read through the fluorescence of an indicator in the cells.)
For the next assay, the target named is α2A (Homo sapiens, UniProt P08913). As to the kind of experiment: FLIPR intracellular calcium assay, α2A. The following applies: read-out: α2A potency (EC50), fluo-3 calcium, NA = not active.
The target in another assay is α1A (UniProt P35348). The experiment in a line: FLIPR intracellular calcium assay, α1A. Conditions: read-out: α1A potency (EC50), fluo-3 calcium, NA = not active.

Regarding `C#CC(NC1=NCCO1)c1ccccc1` (centres unmarked), the “α2C potency (EC50)” value on α2C was “Potent (0.82)”. Besides, the EC50 at α2B came out at 1.12 nM; at α1B it was 17.5 nM; at α2A it was 0.04 nM; at α1A, 0.58 nM.
